Literature values as cited in US20220291182A1.
This is a selection: effects in other tests are not listed, and their absence says nothing.

Tested on: dogs
Details: concentration in air detectable by dogs

## 2,3-dimethy1-2,3-dinitrobutane
  detectable by dogs in air: explosives (detectable by dogs at 0.5 ppb in air)
